Source: patent US11994512B2, “Single-cell genomic methods to generate ex vivo cell systems that recapitulate in vivo biology with improved fidelity” (Massachusetts Institute of Technology, priority 2018, dated 2024)

Tested on: intracellular proteome of ENR+CD and ENR organoids
Test: LC-MS/MS TMT proteomics of ENR+CD versus ENR organoids
Format: cell-based, C57BL/6 mice
Source text: Because PCs are highly secretory, protein-rich cells, Applicants sought to assess the total intracellular proteome between conditions through liquid chromatography mass spectrometry (LC-MS/MS)-based proteomics. Applicants quantified relative protein abundance across eight samples using isobaric mass tag labeling from four ENR and four ENR+CD samples (M1-1 through M2-2, first digit denotes biological donor, second digit denotes technical replicate) (FIG. 3A). Samples were processed and analyzed in a single 10-plex by LC-MS/MS (FIG. 9A).
To affirm the reproducibility of the associated proteins in the ENR+CD-enriched proteome, Applicants performed relative quantification within differentiation sets.
Mass spectrometry proteomics sample preparation, sequencing, and quantification. Organoid cell pellets were isolated from Matrigel with mechanical dissociation and washed (cold PBS 5X) to remove residual extracellular protein. Proteins were extracted from cell pellets with 8 M urea (Sigma), reduced with 5 mM DTT (Thermo Fisher Pierce) for 45 minutes, alkylated with 10 mM IAA (Sigma) for 45 minutes in the dark, and double digested with both Lysyl Endopeptidase “LysC” (Wako) and trypsin (Promega) overnight at RT. A small aliquot of cellular lysate was removed from each sample for protein quantification via the Pierce™ BCA Protein Assay Kit (Pierce). After proteolytic digestion, the samples were quenched using formic acid to a final concentration of 1.0% and subsequently desalted on 10 mg OASIS HLB solid phase columns (Waters).
The peptides were labeled with TMT-10 isobaric mass tag reagent according to manufacturer's instructions (ThermoFisher Scientific). The peptides were labeled at a 1:8 ratio of peptide to TMT reagent, followed by 1-hour incubation at RT with bench top shaking at 850 rpm. After incubation, a […] of labeled tryptic peptide was removed from each labeled condition, desalted with C18 stage tips, and analyzed via LC-MS/MS using a Thermo Fisher Q Exactive Plus Hybrid Mass Spectrometer (QE-Plus) coupled to a Thermo Fisher EASY-nLC 1000 liquid chromatograph to ensure isobaric label incorporation >95%. An additional 1.0 μg of labeled tryptic peptide was removed from each channel, mixed together, desalted on a C18 stage tip, and analyzed via LC-MS to ensure equal relative protein loads. During these quality control steps, the labeled peptides were stored, unquenched at −80° C.

B1: Q32NZ6 (protein, UniProt Q32NZ6 1-967, looked up)
chain: MSSFHQNSSYMEDADYPGYSGSRNHTHNYLETQDYPEFPGSQNNPGFHHPRSNPHSSGSRTNPDYPYFQEEPDYPGSLSNTVYQDTRSHPFSAHSRTRPDYESSIEPDYNDFRSESYHAGLPMEPDYPGSQSHPGFAGVGRSSMNYTGPRTNLGYLGSLEEPDYPGAQDNSYYHSGSRPHSNLPGSRRDAGYAGSRINSYPDDLGEPDYPGAENQPNSPRFYGKPDYPGAEEGDGYSSSKSLAVIRRGNGPFGMLGRRNEDYPEGIGMVSMEMAGDPRNGYVNPAYTRRISPVCPDRNLLLCAHDWHTSVQGQKLIASLIPMTTRDRIKTIRNQPRTMQEKRELRKIVDKEKNKQSHGILEANCCAQCLGSLSLTYRRTRNGLSELLNYITLWQKRFKVIGGKFGTSVLSYFSFLRWLLKFNIFSFVMNFSFIIIPQFTVGAKNTLQFTGLEFFTGAGYFGDTVMYYGFYTNSTIRHRMGGASYNMQLAYIFTIGACLVVCFFSLLFSMAKYFRNNFINPHIYSRGIAKLIFCWDFTVTHEKAVKLKQKNLSTEIRENLSELRQENYRLTFNQQLTRFSAHVAAWLVSTGVTAACCVAVYYLAEYNSEFLKTHRNPGAVLLLPFVVSCINLAVPRFYSMFRLVERYEIPRQEVYVLLVRNIFLKISIVGILCYYWLNIVALSGEECWETLIGQDIYRLLLMDFVFSLADSLLGEFLRRLIGMKFTSLSLQEFDIARNVLELIYAQTLTWLGIFFCPLLPFIQMITLFIMFYVKNVSLMMNFQPPSKAWRASQMITFFIFLLFFPSFTGVLCTLAITIWRLKPSADCGPFRGLPSFIQSIYSWIDTLSRRPGYLWVVWIYQNLIGSVHFFFILTLIVLIITYLYWQITEGRKVMIRLLHEQIINEGKDKMFLIEKLTKLQDMEKRVNPSALDLERREVEPQIPLHLEELGAAPDLRLRRSAQEENPIA
modifications: full-length
Average logFC (protein abundance, ENR+CD versus ENR organoids, aggregate of the four sample pairs): 1.252
M1-1 Log2 Median Normalized (protein abundance, ENR+CD versus ENR organoids, replicate M1-1, log2 ratio): 1.76
M1-2 Log2 Median Normalized (protein abundance, ENR+CD versus ENR organoids, replicate M1-2, log2 ratio): 1.111
M2-1 Log2 Median Normalized (protein abundance, ENR+CD versus ENR organoids, replicate M2-1, log2 ratio): 1.2165
M2-2 Log2 Median Normalized (protein abundance, ENR+CD versus ENR organoids, replicate M2-2, log2 ratio): 1.252
change (up = enriched in ENR+CD, down = enriched in ENR, FDR<0.05 and log fold change cut-off): up
